Measurements taken from publication PMC8215300.

Amino acid sequences for entries named in this document (tags omitted). Residues count along the entry.
UniProt P61073, whole entry: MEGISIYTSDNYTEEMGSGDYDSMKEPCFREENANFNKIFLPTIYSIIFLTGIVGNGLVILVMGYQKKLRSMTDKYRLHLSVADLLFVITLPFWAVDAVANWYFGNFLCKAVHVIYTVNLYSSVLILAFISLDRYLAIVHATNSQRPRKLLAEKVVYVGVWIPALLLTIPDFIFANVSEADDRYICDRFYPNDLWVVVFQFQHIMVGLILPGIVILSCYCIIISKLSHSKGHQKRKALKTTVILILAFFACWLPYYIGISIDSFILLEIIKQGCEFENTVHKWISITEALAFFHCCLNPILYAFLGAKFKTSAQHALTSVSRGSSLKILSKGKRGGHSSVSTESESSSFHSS
UniProt P48061, 22-89: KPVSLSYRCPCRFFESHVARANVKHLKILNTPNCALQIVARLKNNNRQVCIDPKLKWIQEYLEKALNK

Biological target: chemokine receptor CXCR4 (human (endogenous in DU145, PC3 and HEK293)) (UniProt P61073)

ARF1 activation by SDF1α (0–200 ng/ml) in DU145 cells, GST fusion protein pulldown of active ARF1, EC50: 6.3 nM
ARF1 activation by SDF1α (0–200 ng/ml) in HEK293 cells, GST fusion protein pulldown of active ARF1, EC50: 4.1 nM
ARF1 activation by SDF1α (0–200 ng/ml) in PC3 cells, GST fusion protein pulldown of active ARF1, EC50: 7 nM
Substance: Human stromal cell–derived factor 1α (from UniProt P48061-2 22-89) (ligand)
